1 molecule from patent US20200207868A1 (UNIVERSITY OF SASKATCHEWAN, published 2020) can be followed below.

Protein sequences, listed by entry. Tags and fused reporters are not part of them. Residues count along the entry.
UniProt P21860, 20-643: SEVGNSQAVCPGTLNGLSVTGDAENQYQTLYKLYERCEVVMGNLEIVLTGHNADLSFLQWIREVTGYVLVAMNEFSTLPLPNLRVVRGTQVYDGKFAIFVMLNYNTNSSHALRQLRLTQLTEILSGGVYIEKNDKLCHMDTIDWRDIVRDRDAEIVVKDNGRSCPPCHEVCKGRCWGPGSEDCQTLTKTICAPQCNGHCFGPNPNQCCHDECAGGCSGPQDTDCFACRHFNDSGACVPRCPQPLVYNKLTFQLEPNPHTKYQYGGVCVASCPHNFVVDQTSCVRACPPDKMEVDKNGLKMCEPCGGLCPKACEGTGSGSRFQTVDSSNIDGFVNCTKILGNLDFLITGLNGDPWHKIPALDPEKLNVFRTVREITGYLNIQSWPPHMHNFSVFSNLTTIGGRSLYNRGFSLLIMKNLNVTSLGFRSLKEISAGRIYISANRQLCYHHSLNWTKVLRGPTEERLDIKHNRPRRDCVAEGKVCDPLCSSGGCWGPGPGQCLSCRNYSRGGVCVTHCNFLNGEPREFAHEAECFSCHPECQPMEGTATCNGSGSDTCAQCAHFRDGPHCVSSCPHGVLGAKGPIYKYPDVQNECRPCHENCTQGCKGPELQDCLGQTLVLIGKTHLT

The target in test [1] is T1, recombinant Fc-tag-fused human HER3 ectodomain (HER3-ECD-Fc), Sino Biological (human, UniProt P21860 20-643).
T1 construct: extracellular domain; Bought from Sino Biological Inc; also called recombinant HER3-ECD; not shown: Fc tag of the purchased fusion protein
In words: BLI, IgG on amine-reactive (ARG2) biosensor, HER3-ECD in solution. On the technique in general: In BLI a coated tip is dipped into the sample, and binding shifts an interference pattern.

Test [2] deals with HER3 (as used in the biolayer interferometry of Example 2) (UniProt P21860 20-643, limits assumed). The experiment in a line: BLI.

B1: HER3-3 IgG (antibody, V domains shown)
VH: not shown
VL: DIQMTQSPSSLSASVGDRVTITCRASQGISNYLAWYQQKPGKAPKLLIYAASSLQSGVPSRFSGSRSGTDFTLTISSLQPEDFATYYCQQYGWLPLTFGQGTKVEIKR
Broadly, the Kd is the constant that tells how readily two partners part at equilibrium. B1: the figures for the dissociation constant Kd in test [1] and in test [2] were 0.43 nM and 0.34 nM, respectively.
